What was measured:
[1] = tested on: C2C12 cells; assay: Expression of differentiation marker genes and muscle protein synthesis signaling genes in differentiation-induced myoblasts (RT-PCR); conditions: differentiation induced with 2% horse serum, 3 days
Description: C2C12 cells (mouse-derived myoblasts) were cultured in DMEM medium containing 1% P/S and 2% BCS (bovine calf serum). When cell confluency reached 70 to 80%, cells were seeded into 6-well culture plates at a concentration of 5 x 10^5 cells/2 ml. Subsequently, when cell confluency reached 100% in a 6-well culture plate, the differentiation medium (1% P/S, 2% horse serum) and peptides (5µM, 50µM) were replaced. After that, the differentiation medium (1% P/S, 2% horse serum) and peptides (5µM, 50µM) were replaced every two days, and cells were harvested three days after the first replacement and RNA was extracted using Trizol (Thermo Fisher Scientific, USA). The extracted RNA was used to synthesize DNA complementary to the RNA using TOPScript™ RT DryMIX (enzynomics, Korea), and then polymerase chain reaction (PCR) was performed on genes of early and mid-differentiation markers and markers involved in signaling involved in muscle protein synthesis using TOPsimple™ DryMIX-nTaq (enzynomics, Korea). Next, the reaction products were run on a 1.5% agarose gel to compare the mRNA expression levels of the markers for each sample. The primer sequences for the genes used in the PCR are listed in Table 3 below, and the GAPDH gene was used as a control group.
According to the above experimental method, differentiation was induced in C2C12 myoblasts with 2% horse serum, and at the same time the peptide was treated for 3 days to confirm the effect of the peptide on differentiation.

[2] = tested on: HepG2 cells; assay: Immunofluorescence analysis of adipogenesis and lipolysis markers in hepatocytes; conditions: 350 µM oleic acid, peptide 5 µM, 50 µM, 48 hours
Description: HepG2 cells (human-derived hepatocytes) were cultured in DMEM medium containing 1% P/S and 10% FBS. When cell confluency reached approximately 70 to 80%, cells were seeded into 6-well culture plates at a concentration of 3 x 10^5 cells/2 ml. Subsequently, when cell confluency in a 6-well culture plate reached approximately 70 to 80%, the medium was replaced with serum-free DMEM. After 4 hours, lipid accumulation was induced by replacing the medium with serum-free DMEM (1% BSA) supplemented with 350 µM oleic acid (Sigma, St. Louis, MO, USA). After inducing lipid accumulation for 24 hours, the cells were replaced with serum-free DMEM (1% BSA) supplemented with 350 µM oleic acid (Sigma, St. Louis, MO, USA) and peptides (5 µM, 50 µM), and cultured for 48 hours. After culture, the cells were fixed with 4% paraformaldehyde (PFA) for 10 minutes at room temperature (RT) and permeated with 0.1% Triton X-100 for 5 minutes. Subsequently, the cells were blocked with PBS, 10% FBS, and 0.1% Triton X-100 for 1 hour at room temperature, then treated with the primary antibody and incubated at room temperature for 1 hour. The primary antibodies used are as follows: anti-FAS antibody (Cell signaling Technology, USA); anti-SREBP1 antibody (Abcam, UK); anti-pACC antibody (Cell signaling Technology, USA); anti-pHSL antibody (Cell signaling Technology, USA); anti-pATGL antibody (Cell signaling Technology, USA); anti-PLIN antibody (Affinity biosciences, USA). After incubation, the cells were washed three times and incubated with a secondary antibody (goat anti-Rabbit IgG H&L, Abcam, USA) at room temperature for 30 minutes. The samples were washed three times, and the nuclei were counterstained with DAPI (Santa Cruz, USA). Images were acquired using a LEICA fluorescence microscope (TCS SP8, LEICA, Germany).

[3] = tested on: C2C12 cells; assay: Expression of cell proliferation-related marker proteins in myoblasts (Western blot)
Description: C2C12 cells (mouse-derived myoblasts) were cultured in DMEM medium containing 1% P/S and 10% FBS. When cell confluency reached 70 to 80%, cells were seeded into 6-well culture plates at a concentration of 5 x 10^5 cells/2 ml. On the next day, the medium was replaced with serum-free DMEM (1% P/S), and after about 4 hours, was treated with peptides (5 µM, 50 µM). One hour after peptide treatment, cell lysis buffer was added to lyse the cells, and then the proteins were obtained by centrifuging at 4°C and 12,000 rpm for 30 minutes. The obtained proteins were quantified using a BCA kit. The protein was electrotransferred onto a membrane after performing SDS-PAGE (sodium dodecyl sulfate-polyacrylamide gel electrophoresis). The membrane to which the protein was attached was blocked by treatment with 5% skim milk, and then treated with the primary antibody and reacted overnight at 4°C. Anti-SIRT1 antibody (Cell signaling Technology, USA), anti-Ki67 antibody (Santa Cruz, USA), anti-Pax7 antibody (Santa Cruz, USA), anti-pAKT antibody (Cell signaling Technology, USA), and anti-β-actin antibody (Santa Cruz, USA) were used as primary antibodies. After washing the reaction mixture with PBS-T, secondary antibodies (Peroxidase-conjugated AffiniPure Goat Anti-Rabbit IgG (H+L), Jackson immunoResearch, USA; Peroxidase-conjugated AffiniPure Goat Anti-Mouse IgG (H+L), Jackson immunoResearch, USA) were reacted at room temperature for 1 hour and were washed again with PBS-T, the mixture was visualized using Gel Doc (Bio-Rad, Hercules, CA, USA) by treatment with Western detection reagents (Elpis Biotech, Daejeon, Korea).

[4] = tested on: HepG2 cells; assay: Fat accumulation in hepatocytes (Oil-Red O staining, oleic acid induced); conditions: 500 µM oleic acid, peptide 5 µM, 50 µM, 48 hours
Description: HepG2 cells (human-derived hepatocytes) were cultured in DMEM medium containing 1% P/S and 10% FBS. When cell confluency reached approximately 70 to 80%, cells were seeded into a 12-well culture plate at a concentration of 1 x 10^5 cells/1 ml. Subsequently, when cell confluency reached approximately 70 to 80% in a 12-well culture plate, the medium was replaced with serum-free DMEM. After 4 hours, lipid accumulation was induced by replacing the medium with serum-free DMEM (1% BSA) supplemented with 500 µM oleic acid (Sigma, St. Louis, MO, USA). After inducing lipid accumulation for 24 hours, the medium was replaced with serum-free DMEM (1% BSA) supplemented with 500 µM oleic acid (Sigma, St. Louis, MO, USA) and peptides (5 µM, 50 µM), and cultured for 48 hours. To compare the degree of adipogenesis, the cells were washed twice with PBS and fixed with 10% formaldehyde. Oil-Red O solution (Sigma, USA) was added to the fixed cells to stain lipid globules for 2 hours, after which they were washed with distilled water (DW) and observed under a microscope. Subsequently, the distilled water was removed, the cells were dried, washed with isopropanol, and the absorbance was measured using a Spectrophotometer (SPECTRAMAX M2e) at an OD wavelength of 540 nm.

[5] = peptide 5 µM and 50 µM for 1 hour

C[C@@H](O)[C@H](NC(=O)CNC(=O)[C@@H](N)Cc1c[nH]cn1)C(=O)N[C@@H](Cc1ccc(O)cc1)C(=O)O
expression of Myf6 (gene) compared to the control group ([1]; 50 µM of peptide): 1.8 fold | expression level of Myf4 (gene) ([1]; peptide 5 µM, 50 µM): increased in a concentration-dependent manner | expression level of Myf5 (gene) ([1]; peptide 5 µM, 50 µM): increased in a concentration-dependent manner | expression level of Myf6 (gene) ([1]; peptide 5 µM, 50 µM): increased | expression level of MyoD (gene) ([1]; peptide 5 µM, 50 µM): increased | expression level of mTOR (gene) ([1]; peptide 5 µM, 50 µM): increased in a concentration-dependent manner | ATG expression level [2]: increased again in a concentration-dependent manner | FAS expression level [2]: decreased again in a concentration-dependent manner | expression level of PLIN [2]: increased again in a concentration-dependent manner | expression level of SREBP1 [2]: decreased again in a concentration-dependent manner | expression level of pACC [2]: increased again in a concentration-dependent manner | pHSL expression level [2]: increased again in a concentration-dependent manner | expression level of Ki67 protein [3, 5]: increased in a concentration-dependent manner | expression level of Pax7 protein [3, 5]: increased in a concentration-dependent manner | expression level of SIRT1 protein [3, 5]: increased in a concentration-dependent manner | expression level of pAKT protein [3, 5]: increased in a concentration-dependent manner | expression level of Pax7 protein compared to the control group ([3]; peptide 5 µM for 1 hour): 2.6 fold | expression level of Pax7 protein compared to the control group ([3]; peptide 50 µM for 1 hour): 3.8 fold | lipogenesis (Oil-Red O) [4]: inhibited
